Values quoted from earlier work, collected in US4322416A (dated 1982).

Test system: aromatase
Conditions: microsomal enzyme preparations from human placenta; cited from earlier work

Q: With `CCC1(c2ccc(N)cc2)CCC(=O)NC1=O` (stereo not shown) [aminoglutethimide] as the compound, how does the “identified as aromatase inhibitor” value read?
A: The value was “identified as aromatase inhibitors”.
